Data as given in patent US20080057136A1, “Disinfecting Composition and Methods of Making and Using Same” (priority 2003, published 2008).

Tested on: Trichophyton rubrum (ATCC 28188)
Test: Time-Kill test (Example 9)
Format: cell-based

O=C(O)CN(CCN(CC(=O)O)CC(=O)O)CC(=O)O.[Zn]
Relative Kill Potency: 0.52 | 30-Second Reduction from Initial CFU Values (2,200,000 CFU initial): 4.89 fold | reduction of T. rubrum count (Study 509-101, in 30 sec): not effective
